Assay: pH-dependence of insertion into lipid bilayer (pKa)

In the case of CC[C@H](C)[C@H](NC(=O)[C@@H]1CCCN1C(=O)[C@H](CC(N)=O)NC(=O)[C@H](CC(=O)O)NC(=O)[C@H](CCC(=O)O)NC(=O)[C@H](CC(=O)O)NC(=O)[C@H](CC(=O)O)NC(=O)[C@@H](N)CC(=O)O)C(=O)N[C@@H](Cc1ccc(O)cc1)C(=O)N[C@@H](Cc1c[nH]c2ccccc12)C(=O)N[C@@H](C)C(=O)N[C@@H](CCCNC(=N)N)C(=O)N[C@@H](Cc1ccc(O)cc1)C(=O)N[C@@H](C)C(=O)N[C@@H](Cc1c[nH]cn1)C(=O)N[C@@H](Cc1c[nH]c2ccccc12)C(=O)N[C@@H](CC(C)C)C(=O)N[C@@H](Cc1ccccc1)C(=O)N[C@H](C(=O)N[C@H](C(=O)N1CCC[C@H]1C(=O)N[C@@H](CC(C)C)C(=O)N[C@@H](CC(C)C)C(=O)N[C@@H](CC(C)C)C(=O)N[C@@H](CC(C)C)C(=O)N[C@@H](Cc1c[nH]cn1)C(=O)NCC(=O)N[C@@H](C)C(=O)N[C@@H](CC(C)C)C(=O)N[C@@H](CC(C)C)C(=O)N[C@H](C(=O)N[C@@H](CC(N)=O)C(=O)N[C@@H](C)C(=O)N[C@@H](CC(N)=O)C(=O)N[C@@H](CCC(=O)O)C(=O)N[C@@H](CS)C(=O)N[C@H](C(=O)O)[C@@H](C)O)C(C)C)[C@@H](C)O)[C@@H](C)O, the “Notes: pKa of Yana's same variant (H2N2)” value is reported as “pKa-5”.

Source: patent US20160256560A1, “Environmentally Sensitive Compositions” (priority 2010, published 2016)
